{
  "source": "PubChem BioAssay AID488927",
  "about": "(Johns Hopkins Ion Channel Center, 2010)",
  "note": "This is a selection; strong and weak results do not stand in their true shares. The source made the active and inactive calls.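 How the source made its calls: active means membrane potential signal moved up or down beyond 5 SD of buffer control wells, in both duplicate plates, actives on both sides; inactive means the rest.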",
  "data": [
    {"test_system": "Transient receptor potential cation channel subfamily C member 4 (mouse)", "assay": "off-target membrane potential effects via mouse TRPC4 – cell-based, HEK293 TRPC4/mu-opioid, membrane potential dye, selectivity assay for TRPC6 modulator project, confirmation (AID 488927)", "settings": "membrane potential fluorescence, at 10 µM", "values": [
      {"smiles": "CCN(CC)CC(O)COC(=O)C(O)(c1ccccc1)C1CCCCC1", "note": "(stereo not drawn)", "percent of control": "active: 21.5%"},
      {"smiles": "O=C(OC1CN2CCC1CC2)C12CC3CC(CC(C3)C1)C2", "note": "(stereo not drawn)", "percent of control": "active: 17.5%"},
      {"smiles": "CCN(CC)CCCOC(=O)C(O)(c1ccccc1)c1ccccc1", "percent of control": "active: 15%"}
    ]}
  ]
}
